Chains of the proteins cited; added tags and fusions are not shown.
UniProt Q8NER1, whole entry: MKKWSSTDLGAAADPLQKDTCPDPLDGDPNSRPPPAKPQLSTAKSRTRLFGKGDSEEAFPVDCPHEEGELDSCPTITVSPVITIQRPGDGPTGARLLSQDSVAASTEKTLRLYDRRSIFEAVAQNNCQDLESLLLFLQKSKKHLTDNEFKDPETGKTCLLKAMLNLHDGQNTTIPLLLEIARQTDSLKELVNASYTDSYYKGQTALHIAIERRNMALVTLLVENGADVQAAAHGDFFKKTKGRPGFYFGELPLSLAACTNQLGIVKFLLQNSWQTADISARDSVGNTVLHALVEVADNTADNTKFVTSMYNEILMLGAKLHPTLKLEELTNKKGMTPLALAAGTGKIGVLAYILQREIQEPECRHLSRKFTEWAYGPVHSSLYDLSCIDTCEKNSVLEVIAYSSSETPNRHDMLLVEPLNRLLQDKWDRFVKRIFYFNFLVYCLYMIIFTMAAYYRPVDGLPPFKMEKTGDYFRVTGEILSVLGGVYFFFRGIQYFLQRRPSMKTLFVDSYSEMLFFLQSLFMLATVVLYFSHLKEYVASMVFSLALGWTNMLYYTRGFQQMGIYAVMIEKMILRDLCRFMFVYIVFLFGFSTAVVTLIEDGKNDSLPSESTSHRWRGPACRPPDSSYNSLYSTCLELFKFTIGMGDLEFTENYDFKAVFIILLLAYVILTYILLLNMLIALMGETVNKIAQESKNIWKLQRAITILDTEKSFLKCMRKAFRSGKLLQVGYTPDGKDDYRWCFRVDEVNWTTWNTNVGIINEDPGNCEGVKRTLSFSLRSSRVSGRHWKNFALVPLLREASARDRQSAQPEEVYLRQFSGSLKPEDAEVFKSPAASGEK

In US20050154230A1, “Urea derivatives” (Bayer HealthCare AG, priority 2001, published 2005):

Molecular target: human VR1 (Homo sapiens, UniProt Q8NER1)
Test: Capsaicin-induced Ca2+ influx in the human VR1-transfected CHO cell line (Assay 1)
Assay type: cell-based
Conditions: read-out: hVR1 class; human VR1-CHOluc9aeq cells, 10 nM capsaicin; compound purity about 40 to 90%

| SMILES | pIC50 |
| --- | --- |
| CSc1cccc(NC(=O)NCc2ccc(Cl)c(Cl)c2)c1 | 6.00 to 6.30 |
| COc1cc(CNC(=O)Nc2ccc(C)c(Cl)c2)ccc1O | > 7.00 |

pIC50: −log10 of the molar value.
